AlphaSeq binding of Ab-14 heavy chain variants to a spike HR2 peptide

The measurements come from Li et al. 2023 (doi:10.1038/s41467-023-39022-2) through the FLAb antibody collection.

Target: peptide PDVDLGDISGINAS, taken from heptad repeat 2 (HR2) of SARS-CoV-2 spike.

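The starting antibody came from a phage panning campaign against this peptide. These sequences belong to a second round, designed from the earlier measurements on random variants of the parent. Group labels follow the data file (Rand: our label for a block that the file lists under HC and that is probably the random mutants of the ten best first-round binders; En: ensemble of fine-tuned language models; HC: hill climbing; Gen: genetic algorithm; Gibbs: Gibbs sampling; a sequence that several methods proposed may carry one label only). The scFvs were displayed on barcoded MATa yeast, the peptide on MATalpha yeast. Pairs that bind mate more often; barcode pairs of the diploids are counted by sequencing. The ratio of observed to expected reads was calibrated, replicate by replicate, on BCL2-family standards whose Kd was known from biolayer interferometry. Mating was done six times.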

Each scFv is VH, a (GGGGS)3 linker, VL, as in the parent Ab-14, and differs from it in the CDRs of the heavy chain only.
VH: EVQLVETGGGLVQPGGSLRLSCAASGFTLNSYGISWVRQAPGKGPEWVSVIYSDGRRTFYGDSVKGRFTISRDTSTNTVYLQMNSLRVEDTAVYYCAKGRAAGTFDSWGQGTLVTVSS
VL: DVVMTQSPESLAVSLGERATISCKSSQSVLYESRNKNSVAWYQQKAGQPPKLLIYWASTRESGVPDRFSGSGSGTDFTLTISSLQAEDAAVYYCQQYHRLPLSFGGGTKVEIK

The parent's heavy chain CDRs are GFTLNSYGIS, VIYSDGRRTFYGDSVK, GRAAGTFDS; each variant's own CDRs replace them letter for letter. Variants here have more than six changes. Each Kd is an estimate from the mating assay, the geometric mean of the replicates in which the pair was seen; lower is stronger. "nd" marks a missing value. The strain was present, yet no cells mated with the target were sequenced in any replicate, which points to weak or no binding.

* GFDLNEYGIS, VIYADGRRTAYADSVK, GGNAGFFDS [En_HC]: nd (0 of 6 replicates; controls 1 of 18)
* GFDLNEYGIS, VIYADGRRTFYIDSVK, GEAAGTFVM [En_HC]: 7.3 nM (6 of 6 replicates; controls 0 of 18)
* GNDINEYGIS, VIYADGMRTAYLNDVK, GQLGGLFFM [En_Gibbs]: nd (0 of 6 replicates; controls 0 of 18)
* GFNLNEYGIS, VIYADGRRTAYSDSVK, GEAGGTFDV [En_HC]: 530 pM (6 of 6 replicates; controls 0 of 18)
* GFDLDEYGIS, VIYADGMRTAYTDSVK, GGNAGTFDV [En_Gen]: 260 pM (6 of 6 replicates; controls 1 of 18)
* GFDLNEYGIS, VIYADGMRTVYADSVK, GQVAGTFDI [En_Gen]: 220 pM (6 of 6 replicates; controls 0 of 18)
* GSDLNEYGIS, VIYADGRRVSYAENVK, GINMAGIFI [En_Gibbs]: nd (0 of 6 replicates; controls 0 of 18)
* GFDLNEYGIS, VIYADGRRTAYADSVK, GTVAGTFDV [En_Gen]: 390 pM (6 of 6 replicates; controls 0 of 18)
* GFDINEYGIS, VIYADGRRTAYADSVK, GEAAGTFDE [En_HC]: 380 pM (6 of 6 replicates; controls 0 of 18)
* GFDLNEYGIS, VIYADGRRTFYADSVK, GEVAGTFFS [En_HC]: 250 pM (6 of 6 replicates; controls 0 of 18)
* GFDLQEYGIS, VIYADGVRMAYTDSVK, GNWGGRDML [En_Gibbs]: 14 nM (1 of 6 replicates; controls 0 of 18)
* GFDLNEYGIS, VIYADGQRTAYADSVK, GKAAGTFDF [En_HC]: 530 pM (6 of 6 replicates; controls 0 of 18)
* GKGLDEYGIS, VIYADGVRKAYQNSVK, GQVTFFIRV [En_Gibbs]: nd (0 of 6 replicates; controls 0 of 18)
* GTTLNSYFIS, VIYSDGRRTFHDDSVK, GQLAGDFDS [Rand]: nd (0 of 6 replicates; controls 0 of 18)
* GFSLDEMGIS, VIYADGQRTAYQDNVK, GQNGVVVFV [En_Gibbs]: nd (0 of 6 replicates; controls 0 of 18)
* GGTLDSYGIG, VIYSDGRRTFYTISVK, GRAAQTALS [Rand]: nd (0 of 6 replicates; controls 0 of 18)
* GFNLNEYGIS, VIYADGMRTFYTDSVK, GETAGTFDV [En_HC]: 570 pM (6 of 6 replicates; controls 0 of 18)
* GFDLNEYGIS, VIYADGKRTAYANSVK, GETAGTFDV [En_Gen]: 380 pM (6 of 6 replicates; controls 0 of 18)
* GFDLEEMGIS, VIYADGARKVYTNSVK, GGFGGQMLV [En_Gibbs]: nd (0 of 6 replicates; controls 0 of 18)
* GFDLEEYGIS, VIYADGRRTFYTDSVK, GETAGTFDV [En_HC]: 280 pM (6 of 6 replicates; controls 0 of 18)
* GFDLDEYGIS, VIYADGMRTYYADSVK, GNQAGTFDV [En_Gen]: 340 pM (6 of 6 replicates; controls 0 of 18)
* GFDLNEYGIS, VIYADGRRTAYADSVK, GETAGTFDV [En_Gen]: 300 pM (6 of 6 replicates; controls 0 of 18)
* GGDLEEMGVS, VIYADGKRKAYKNKAK, GQTAGSFDV [En_Gibbs]: nd (0 of 6 replicates; controls 1 of 18)
* GNNLDEYGIS, VIYADGQRTYYAEDVK, GKTGDNAFI [En_Gibbs]: 13 nM (6 of 6 replicates; controls 1 of 18)
* GFDLNEYGIS, VIYADGMRTAYSDKVK, GNVAGTFDV [En_Gen]: 630 pM (6 of 6 replicates; controls 0 of 18)
* GQDLNEYGIS, VIYADGQRTSYVQSVK, GAGDITGLV [En_Gibbs]: nd (0 of 6 replicates; controls 0 of 18)
* GFDLEDYGIS, VIYADGMRTAYTDSVK, GENAGTFDV [En_Gen]: 1.1 nM (6 of 6 replicates; controls 0 of 18)
* GFGINEYGIS, VIYADGMRRSYADSVK, GAHSGYMVV [En_Gibbs]: nd (0 of 6 replicates; controls 0 of 18)
* GFDIQDYGIS, VIYADGSRTAYTNSVK, GVTGAFAGL [En_Gibbs]: nd (0 of 6 replicates; controls 0 of 18)
* GFDLNEYGIS, VIYADGRRTAYADSVK, GSEAGTFDM [En_HC]: 490 pM (6 of 6 replicates; controls 0 of 18)
* GFDLNEYGIS, VIYADGVRTFYVDSVK, GENAGTFDS [En_HC]: 580 pM (6 of 6 replicates; controls 0 of 18)
* GFDLEDYGIS, VIYADGKRTAYIDSVK, GEVAGTFDV [En_HC]: 820 pM (6 of 6 replicates; controls 0 of 18)
* GFDLNEYGIS, VIYADGRRTAYADDVK, GNTAGTFDI [En_Gen]: 130 nM (5 of 6 replicates; controls 0 of 18)
* GGDLKEYGIS, VIYADGNRKNYADNVK, GQNGDVLNI [En_Gibbs]: nd (0 of 6 replicates; controls 1 of 18)
* GDSLDEYGIS, VIYADGQRSYYANSVK, GEVDGLFSQ [En_Gibbs]: 89 nM (1 of 6 replicates; controls 0 of 18)
* GFDLNEYGIS, VIYADGRRTFYSDSVK, GNNGGTFDM [En_HC]: 1.3 nM (6 of 6 replicates; controls 0 of 18)
* GFDLNEYGIS, VIYADGRRTSYKDSVK, GELAGTFDV [En_HC]: 640 pM (6 of 6 replicates; controls 0 of 18)
* GFQLNEYGIS, VIYADGKRSEYQDSVK, GGSNSSFSL [En_Gibbs]: nd (0 of 6 replicates; controls 0 of 18)
* GFDLNEYGIS, VIYADGMRTQYADSVK, GNNAGTFDI [En_Gen]: 980 pM (6 of 6 replicates; controls 0 of 18)
* GFDVNEYGIS, VIYADGVRRTYQDAVK, GNQSGVVDV [En_Gibbs]: nd (0 of 6 replicates; controls 0 of 18)
* GFQLNEYGIS, VIYADGIRRAYASKVK, GGEDASFDL [En_Gibbs]: nd (0 of 6 replicates; controls 0 of 18)
* GFDLDKYGIS, VIYADGRRKAYQTQFK, GGQTGTFDI [En_Gibbs]: 1.9 nM (6 of 6 replicates; controls 0 of 18)
* GFDISEYGIS, VIYADGKKTQFVNTVK, GELGGTLDV [En_Gibbs]: nd (0 of 6 replicates; controls 0 of 18)
* GKDIEEYGIS, VIYADGVRAAYADSVK, GINMDIMTV [En_Gibbs]: 110 nM (3 of 6 replicates; controls 1 of 18)
* GFDLNEYGIS, VIYADGLRTFYTDSVK, GEIAGTFDS [En_HC]: 300 pM (6 of 6 replicates; controls 0 of 18)
* GFTLNEYGIS, VIYSDGRRTFPTDSVK, GYFAGYMDS [Rand]: nd (0 of 6 replicates; controls 0 of 18)
* GFDLNEYGIS, VIYADGQRTFYADSVK, GENAGTFDM [En_Gen]: 630 pM (6 of 6 replicates; controls 0 of 18)
* GFDLDEYGIS, VIYADGRRTFYADSVK, GENAGTFDQ [En_HC]: 260 pM (5 of 6 replicates; controls 0 of 18)
* GFDLNEYGIS, VIYADGMRTFYADSVK, GHVAGTFVS [En_HC]: 1.8 nM (5 of 6 replicates; controls 0 of 18)
* GFDLNEYGIS, VIYADGKRTFYADSVK, GKNAGTFDV [En_HC]: 430 pM (6 of 6 replicates; controls 0 of 18)
* GFDLNEYGIS, VIYADGMRTFYADDVK, GNVAGTFDQ [En_Gen]: 3.3 nM (6 of 6 replicates; controls 0 of 18)

Top 6 of the variants detected in all replicates, tightest first:

| CDR-H1 | CDR-H2 | CDR-H3 | group | Kd | seen in | control signals |
|---|---|---|---|---|---|---|
| GFDLNEYGIS | VIYADGMRTVYADSVK | GQVAGTFDI | En_Gen | 220 pM | 6/6 | 0/18 |
| GFDLNEYGIS | VIYADGRRTFYADSVK | GEVAGTFFS | En_HC | 250 pM | 6/6 | 0/18 |
| GFDLDEYGIS | VIYADGMRTAYTDSVK | GGNAGTFDV | En_Gen | 260 pM | 6/6 | 1/18 |
| GFDLEEYGIS | VIYADGRRTFYTDSVK | GETAGTFDV | En_HC | 280 pM | 6/6 | 0/18 |
| GFDLNEYGIS | VIYADGRRTAYADSVK | GETAGTFDV | En_Gen | 300 pM | 6/6 | 0/18 |
| GFDLNEYGIS | VIYADGLRTFYTDSVK | GEIAGTFDS | En_HC | 300 pM | 6/6 | 0/18 |

Values of this round are not directly comparable with the first-round values of the same sequences. Background: pairings of all heavy chain designs with three empty control strains gave a value in 1% of cases (median 120 nM, 5th percentile 7.0 nM). Values in that range, when seen in few replicates, are hard to tell from nonspecific mating. Also given: how often the same scFv was detected with the empty control strains. The authors' rule: three or more of the six replicates give a measured affinity, fewer mean a poor binder. The parent sequence was in this pool as ten entries: three were never detected, three once, and four in most replicates, with averages from 2.2 nM to 240 nM.